Drawing on patent publication US11945796B2, “Substituted pyridine derivatives as SARM1 inhibitors” (Nura Bio, Inc., priority 2020, dated 2024), this text covers IC50 for one molecule.

Chains of the proteins cited; added tags and fusions are not shown. Residues count along the entry.
UniProt Q6SZW1, 50-724 limits assumed: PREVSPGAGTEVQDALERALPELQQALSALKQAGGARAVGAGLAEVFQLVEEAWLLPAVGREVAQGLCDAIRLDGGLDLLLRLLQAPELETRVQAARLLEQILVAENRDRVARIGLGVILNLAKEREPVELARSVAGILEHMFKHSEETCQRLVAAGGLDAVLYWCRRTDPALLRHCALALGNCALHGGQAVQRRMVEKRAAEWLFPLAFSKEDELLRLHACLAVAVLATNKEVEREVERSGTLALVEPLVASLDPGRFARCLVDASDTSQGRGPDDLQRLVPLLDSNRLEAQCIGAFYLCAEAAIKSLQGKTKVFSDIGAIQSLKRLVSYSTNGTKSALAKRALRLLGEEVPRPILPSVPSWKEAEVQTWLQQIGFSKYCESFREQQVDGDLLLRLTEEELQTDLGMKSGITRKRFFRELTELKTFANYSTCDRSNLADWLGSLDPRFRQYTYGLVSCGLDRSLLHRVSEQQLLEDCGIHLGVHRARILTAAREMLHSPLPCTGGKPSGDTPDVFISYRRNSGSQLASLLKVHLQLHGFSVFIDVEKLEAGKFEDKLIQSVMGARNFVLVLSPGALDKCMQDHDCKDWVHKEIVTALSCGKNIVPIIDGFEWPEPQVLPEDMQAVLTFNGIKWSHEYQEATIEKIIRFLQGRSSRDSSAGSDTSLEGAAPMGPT

The target in this assay is human SARM1(50-724) (Homo sapiens, UniProt Q6SZW1). The experiment in a line: SARM1 NADase biochemical assay (HPLC peak areas of NAD and NAM). The settings on record: read-out: SARM1 IC50; dose-response, 1:3 serial dilution from 100 μM; 40 nM SARM1, 0.3 mM NMN, 20 μM NAD, 60 min rt.

Usually IC50 stands for the midpoint of a concentration-inhibition curve.

With `CCC(c1ccncc1)c1ccn(CC(F)(F)F)n1` (stereo not shown), the 50% inhibitory concentration (IC50) is 1 to 10 µM.
